One compound from patent US20230210903A1, “HYPOXIA-RESISTANT NATURAL KILLER CELLS” (ONK THERAPEUTICS LIMITED, priority 2020, published 2023) can be followed below.

The test system of this experiment is phosphorylation of ERK and STAT3. The experiment in a line: Western blotting of ERK and STAT3 phosphorylation in hypoxic KHYG-1 cells. The conditions noted are these: hypoxic KHYG-1 cells pre-treated with 5 μM for 2 h. It counts as cell-based. On the procedure: For western blotting, treated and untreated KHYG-1 and NK92 cells were lysed in buffer containing 50 mM Tris, 150 mM NaCl, 1% Triton X-100, 1% sodium deoxycholate, 0.1% SDS and protease inhibitors on ice for 30 min. Lysates were centrifuged at 12,000 rpm for 15 min, and supernatants were collected. Protein concentration was determined by the BCA protein assay kit (HEART Biotech, #WB003). Equal amounts of protein were loaded and separated on sodium dodecyl sulfate-polyacrylamide gel electrophoresis gel, and transferred onto a PVDF membrane (Millipore, #IPVH00010). After blocking for 1 h with 5% non-fat milk in PBS with 0.1% Tween-20 at room temperature, the membrane was incubated with primary antibody at 4° C. overnight. Immunoblots were visualized using HRP-conjugated secondary antibodies and the ECL Western Blot Detection kit (Phygene Life Sciences, #PH0353).
Prior to siRNA transfection, KHYG-1 cells were washed in pre-warmed Opti-MEM medium (Life Technologies, Carlsbad, Calif., USA) and resuspended in the same medium. Then, 10^6 cells were electroporated with 2 μg of siRNA in 100 μL Opti-MEM medium in 0.2 cm cuvettes with an electroporator CUY21EDIT (BEX Co. Ltd, Japan). […] Transfection efficiency and viability were analyzed by flow cytometry 2-6 h after electroporation by quantitatively measuring the expression of fluorescein isothiocyanate (FITC)-labeled siRNA or 7-AAD. […]

In the case of `CC1(N)CCN(c2cnc(-c3cccc(Cl)c3Cl)c(N)n2)CC1` [SHP099], the “phosphorylation of ERK and STAT3” value is “no effect”.
